Experimental data: patent publication US4130645A (priority 1978, dated 1978)

What was measured:
barley = assay: Phytotoxicity to barley in barley powdery mildew test; details: 500 ppm
apple = assay: Phytotoxicity to apple in apple powdery mildew test; details: 500 ppm

O=[N+]([O-])Nc1c(Cl)cc([N+](=O)[O-])cc1Cl
phytotoxicity (barley): M | phytotoxicity (apple): M
